In US9884122B2, “Small molecule drug conjugates” (Philochem AG, priority 2014, dated 2018):

Biological target: CAIX (Homo sapiens, UniProt Q16790)
Assay: Binding performance by surface plasmon resonance (B1, B2)
Settings: SPR
Description: Binding experiments of monovalent and bivalent AAZ derivatives to CAIX using surface plasmon resonance indicated a fast association for both compounds (ka=1.48×10^6 M^−1 s^−1 and ka1=1.28×10^6 M^−1 s^−1, ka2=1.36×10^6 RU^−1 respectively).

- Kd: 10.5 nM
- kd: 0.015 s⁻¹
- ka (monovalent): 1.48e+06 M⁻¹ s⁻¹
SMILES: NCCOCCOCCNC(=O)CCCCn1cc(CCCC(=O)Nc2nnc(S(N)(=O)=O)s2)nn1
- dissociation from the CAIX-coated surface (in words): completely dissociated from the CAIX-coated surface within seconds
